Values of other authors as cited in patent US4668689A, “Glutarimide derivatives for treating oestrogen-dependent tumors” (National Research Development Corporation, priority 1984, dated 1987).

System: aromatase
Conditions: literature; cited from earlier work

CCC1(c2ccncc2)CCC(=O)NC1=O (stereo not shown) [Pyridoglutethimide, 3-ethyl-3-(4-pyridyl)piperidine-2,6-dione]
inhibition of aromatase: inhibits aromatase
